One-dose inflammasome screen (PubChem AID 2061109, Seoul National University)
system: mouse macrophages from bone marrow, LPS + nigericin (NLRP3)
compound dose: 5 µM
value: % inhibition of cell death (propidium iodide), 0 = stimulated, 100 = untreated, floor at 0
*: called active, above 70% Part of the library is listed.

COc1cc([C@H]2OC[C@H]3[C@@H]2CO[C@@H]3c2cc(OC)c(O[C@@H]3O[C@H](CO)[C@@H](O)[C@H](O)[C@H]3O)c(OC)c2)ccc1O[C@@H]1O[C@H](CO)[C@@H](O)[C@H](O)[C@H]1O → inhibition 79.9*%
COC(=O)C1=C(C#N)NC(C)=C(C(=O)OC(C)C)C1c1cccc([N+](=O)[O-])c1 → inhibition 4.3%
OCCCCOc1nsnc1-c1ccc(Cl)c(Cl)c1 → inhibition 0.0%
CC(C)(O)c1ccccc1CC[C@@H](SCC1(CC(=O)O)CC1)c1cccc(/C=C/c2ccc3ccc(Cl)cc3n2)c1 → inhibition 8.1%
O=C1CC(Nc2ncnc3nc[nH]c23)CN1Cc1ccccc1 → inhibition 0.0%
CC[N+]1(C/C2=C/CCCCCC2)CCC(NC(=O)C2c3cc(Cl)ccc3Oc3ccc(Cl)cc32)CC1.[I-] → inhibition 0.0%
COc1ccc2c(c1)CN(C)CC2c1ccc(Cl)c(Cl)c1.Cl → inhibition 60.8%
C[N+]1(C)[C@@H]2CC[C@H]1CC(OC(=O)C(CO)c1ccccc1)C2.[Br-] → inhibition 29.5%
CC(C)Oc1ccc(C=O)cc1 → inhibition 3.0%
CC[C@H]1OC(=O)[C@H](C)[C@@H](O[C@H]2C[C@@](C)(OC)[C@@H](O)[C@H](C)O2)[C@H](C)[C@@H](O[C@@H]2O[C@H](C)C[C@H](N(C)C)[C@H]2O)[C@](C)(O)C[C@@H](C)CN(C)[C@H](C)[C@@H](O)[C@]1(C)O → inhibition 75.4*%
Nc1ccc(-c2cccc(C(=O)Nc3cnc4nc(N5CCOCC5)oc4c3)n2)cn1 → inhibition 0.0%
Nc1cc(C(F)F)c(-c2nc(N3[C@@H]4CC[C@H]3COC4)nc(N3[C@@H]4CC[C@H]3COC4)n2)cn1 → inhibition 50.1%
CCOC(=O)/C(C#N)=C(\N)c1ccccc1 → inhibition 0.0%
O=C(NCc1cccnc1)c1cc(-n2cnn(Cc3ccc(F)cc3)c2=O)n[nH]1 → inhibition 0.0%
Cc1cc(Nc2ccccc2)nc(Nc2ccc(NC(=O)c3ccccc3Cl)cc2)n1 → inhibition 38.6%
CS(=O)(=O)O.Cc1ccc(NC(=O)c2ccc(CN3CCN(C)CC3)cc2)cc1Nc1nccc(-c2cccnc2)n1 → inhibition 0.0%
COC1CCC(N(C(=O)C2CCC(C)CC2)c2cc(C3=CCCCC3)sc2C(=O)O)CC1 → inhibition 45.7%
NC(=O)c1[nH]cc(-c2ccncc2)c1C(F)(F)F → inhibition 3.3%
CCC(C)(C)C(=O)N(O)Cc1ccccc1 → inhibition 72.3*%
NC(=O)C1=CN(C2OC(COP(=O)([O-])OP(=O)([O-])OCC3OC(n4cnc5c(N)ncnc54)C(OP(=O)([O-])[O-])C3O)C(O)C2O)C=CC1.[Na+].[Na+].[Na+].[Na+] → inhibition 0.0%
Cl.Cl.c1ccc(C(CC2=NCCN2)c2ccccn2)cc1 → inhibition 0.0%
COc1ccc2c(c1)c(CC(=O)Oc1ccc(NC(C)=O)cc1)c(C)n2C(=O)c1ccc(Cl)cc1 → inhibition 0.0%
Fc1ccc(-c2nc(-c3ccc4ccccc4c3F)[nH]c2-c2ccncc2)cc1 → inhibition 30.1%
CC(=O)N[C@@H](Cc1c[nH]c2ccccc12)C(=O)OCc1cc(C(F)(F)F)cc(C(F)(F)F)c1 → inhibition 63.9%
CC(C)(C(=O)c1cccnc1)c1cccnc1 → inhibition 0.0%
Cc1[nH]c2c(N3CCO[C@H](CO)C3)c(C#N)c(C(F)(F)F)nc2c1Cl → inhibition 28.6%
c1ccc(-c2oc3ncnc(NC[C@@H]4CCCO4)c3c2-c2ccccc2)cc1 → inhibition 60.1%
O=c1oc2ccccc2cc1[N+](=O)[O-] → inhibition 35.5%
CCn1cc(C(=O)O)c(=O)c2c(N)c(F)c(NC3CCCCC3)cc21 → inhibition 57.2%
Cc1csc(=NC2CCCCC2)n1/N=C/c1ccc(O)c(O)c1O → inhibition 24.2%
O=C1C(c2c(O)[nH]c3ccccc23)=Nc2ccccc21 → inhibition 64.2%
O=c1nc2oc3ccccc3cc-2c(=O)[nH]1 → inhibition 6.0%
O=C(N[C@@H](C1CC1)C(F)(F)F)c1cc(-c2cnn3cc(-c4ccc(F)cc4)cnc23)cs1 → inhibition 11.7%
C[C@H](CC(=O)C[C@@H](C)[C@H]1C[C@H](O)[C@@]2(C)C3=C(C(=O)C[C@]12C)[C@@]1(C)CC[C@H](O)C(C)(C)[C@@H]1C[C@@H]3O)C(=O)O → inhibition 0.0%
C[C@H]1[C@H](C)CC[C@]2(C)CC[C@]3(C)C(=CC[C@@H]4[C@@]5(C)CC[C@@H](O)[C@](C)(C(=O)O)[C@@H]5CC[C@]43C)[C@H]12 → inhibition 56.1%
O=c1[nH]cnc2[nH]ncc12.[Na+] → inhibition 44.5%
COc1cc(C(=O)N(CCCc2ccccc2)Cc2ccc(CC(=O)O)cc2)cc(OC)c1C → inhibition 0.0%
CC1=C2C[C@H]3[C@@H](CC=C4C[C@@H](O)CC[C@@]43C)[C@@H]2CC[C@]12O[C@@H]1C[C@H](C)CN[C@H]1[C@H]2C → inhibition 0.0%
CCNc1cc(NC2CCC(O)CC2)nc(Nc2ccc3c(ccn3Cc3ccccc3)c2)n1 → inhibition 68.4%
CNC(=O)c1ccc(Nc2ncc(C(F)(F)F)c(NCc3nccnc3N(C)S(C)(=O)=O)n2)cc1.Cl → inhibition 25.7%
COc1ccccc1Oc1c(NS(=O)(=O)c2ccc(C)cn2)nc(-c2ccncc2)nc1OC → inhibition 0.0%
CN1CCN(c2ccc(N3C[C@H](CO)OC3=O)cc2F)C=N1 → inhibition 68.6%
COc1ccc(CNCc2cccc3ccccc23)cc1.Cl → inhibition 24.7%
CCOC(=O)c1sc(NC(=O)c2sccc2C)cc1C → inhibition 0.4%
Cc1ncc(CNC(=O)N(CCCl)N=O)c(N)n1.Cl → inhibition 79.4*%
CN1C(=O)[C@@H](NC(=O)c2cc(Cc3ccccc3)on2)COc2ccccc21 → inhibition 37.9%
O=C1Nc2ccccc2/C1=C/c1ccccn1 → inhibition 67.7%
CCS(=O)(=O)c1ncc(Cl)c(C(=O)N(Cc2ccc(Cl)cc2)Cc2ccco2)n1 → inhibition 87.5*%
Nc1ncnc2c1nnn2[C@@H]1O[C@H](CO)[C@@H](O)[C@H]1O → inhibition 47.5%
OCc1ccc(-c2ccc(-c3ccc(CO)s3)o2)s1 → inhibition 0.0%
COc1ccc([C@@H](O)c2cc(-c3ncnc4cc(N5CCOCC5)ccc34)c(F)cc2Cl)nn1 → inhibition 0.0%
CC(=O)OC(C)(C)/C=C/C(=O)[C@](C)(O)[C@H]1[C@H](O)C[C@@]2(C)[C@@H]3CC=C4[C@@H](C=C(O)C(=O)C4(C)C)[C@]3(C)C(=O)C[C@]12C → inhibition 0.0%
COC(=O)N[C@H](C(=O)N1CCC[C@H]1c1nc2ccc(-c3csc4c(-c5ccc(-c6cnc([C@@H]7CCCN7C(=O)[C@H](NC(=O)OC)c7ccccc7)[nH]6)cc5)csc34)cc2[nH]1)C(C)C → inhibition 0.0%
O=C(NCCCN1CCOCC1)c1ccc(Cl)cc1 → inhibition 80.0*%
CCc1c(O)cc(O)c(C(=O)c2ccc(OCCN3CCOCC3)c(OC)c2)c1CC(=O)N(CCOC)CCOC → inhibition 16.2%
CC(=O)Nc1ccc(C(=O)Nc2ccccc2N)cc1 → inhibition 0.0%
CNC(=O)O[C@H]1COc2ccc(N3CCN(C4COC4)CC3)cc2[C@@H]1NC(=O)c1ccc(F)cc1 → inhibition 0.0%
Cc1nn(C)c2nc(NNC(=O)Nc3cc(Cl)nc(Cl)c3)cc(C(C)C)c12 → inhibition 0.0%
Cc1cc(C)c(S(=O)(=O)n2cc(C)cc2C)c(C)c1 → inhibition 68.0%
C[C@@H](Oc1cc(C(=O)Nc2ccc(C(=O)N3CCN(C)CC3)cc2)nnc1N)c1c(Cl)ccc(F)c1Cl → inhibition 0.0%
O=C(OC12CC3CC(CC(C3)C1)C2)c1ccc(NCc2cc(O)ccc2O)cc1 → inhibition 50.7%
C[C@@H]1C[C@H]2[C@@H]3CCC4=CC(=O)C=C[C@]4(C)[C@@]3(F)[C@@H](O)C[C@]2(C)[C@@]1(O)C(=O)CO → inhibition 0.0%
CC(=O)c1c(C)c2cnc(Nc3ccc(N4CCNCC4)cn3)nc2n(C2CCCC2)c1=O.O=S(=O)(O)CCO → inhibition 0.0%
CC[C@@H](Oc1nc(Oc2cccc(-c3cccc(CN)c3)c2)c(F)cc1F)C(=O)O → inhibition 0.0%
Cc1[nH]n(-c2ccccc2)c(=O)c1N=Nc1ccc(N2CCOCC2)cc1 → inhibition 0.0%
Cc1c(-c2ccc3cccnc3c2)nnn1-c1cccnc1F → inhibition 62.4%
CC1C(=O)NC2=Nc3cccc(Cl)c3CN21 → inhibition 52.9%
C[C@H]1CCN1c1nc(N2C[C@@H]3C(CC(=O)O)[C@@H]3C2)cc(C(F)(F)F)n1 → inhibition 52.5%
COc1cc(C(=O)NS(=O)(=O)c2ccccc2C)ccc1Cc1cn(C)c2ccc(NC(=O)OC3CCCC3)cc12 → inhibition 0.0%
Cc1ccc(C(=O)Nc2ccc(CN3CCN(C)CC3)c(C(F)(F)F)c2)cc1C#Cc1cnc2cccnn12.Cl → inhibition 8.9%
Cc1ccc(S(=O)(=O)N[C@@H](Cc2ccccc2)C(=O)CCl)cc1 → inhibition 72.3*%
NC(N)=NCCS.NC(N)=NCCS.O=S(=O)(O)O → inhibition 0.0%
O=C(O)c1ccc(CCCc2c(CCNS(=O)(=O)Cc3ccccc3C(F)(F)F)n(C(c3ccccc3)c3ccccc3)c3ccc(Cl)cc23)cc1 → inhibition 0.0%
OC[C@H]1O[C@@H]2O[C@H]3[C@H](O)[C@@H](O)[C@@H](O[C@H]4[C@H](O)[C@@H](O)[C@@H](O[C@H]5[C@H](O)[C@@H](O)[C@@H](O[C@H]6[C@H](O)[C@@H](O)[C@@H](O[C@H]7[C@H](O)[C@@H](O)[C@@H](O[C@H]8[C@H](O)[C@@H](O)[C@@H](O[C@H]1[C@H](O)[C@H]2O)O[C@@H]8CO)O[C@@H]7CO)O[C@@H]6CO)O[C@@H]5CO)O[C@@H]4CO)O[C@@H]3CO → inhibition 0.0%
[O-][n+]1cccc(-c2nc3c(Cl)cccc3cc2C(Nc2ncnc3cccnc23)C(F)(F)F)c1 → inhibition 0.0%
CC(=O)OC[C@@H](COC(=O)/C=C/c1ccc(O)cc1)O[C@@H]1O[C@H](CO)[C@@H](O)[C@H](O)[C@H]1O → inhibition 0.0%
O=C(Nc1cccc(C(F)(F)F)c1)c1cccc2cc(Oc3cc(CO)ncn3)ccc12 → inhibition 0.0%
CC(C)OP(=O)(OC(C)C)C(Cc1cc(C(C)(C)C)c(O)c(C(C)(C)C)c1)P(=O)(OC(C)C)OC(C)C → inhibition 15.5%
O=C(O)CC(CC(=O)O)C(=O)O → inhibition 0.0%
O=C(CBr)N1CC([N+](=O)[O-])([N+](=O)[O-])C1 → inhibition 57.1%
O=C(Cc1ccc(O)cc1)N1CCc2c([nH]c3ccccc23)C1 → inhibition 0.0%
COC(=O)c1ccccc1C(=O)c1ccc(OCCN2CCCCC2)cc1.Cl → inhibition 78.4*%
CNS(=O)(=O)c1ccccc1Nc1nc(Nc2ccc(N3CCN(C)CC3)cc2OC)ncc1Br → inhibition 0.0%
CC(C)(C)NC(=O)[C@H]1CC[C@H]2[C@@H]3CC[C@H]4NC(=O)C=C[C@]4(C)[C@H]3CC[C@]12C → inhibition 22.9%
CC[C@H](C)[C@@H]([C@@H](CC(=O)N1CCC[C@H]1[C@H](OC)[C@@H](C)C(=O)N[C@@H](Cc1ccccc1)c1nccs1)OC)N(C)C(=O)[C@@H](NC(=O)[C@@H](NC)C(C)C)C(C)C → inhibition 81.1*%
Cc1cc(Nc2cc(NC(=O)c3c(Cl)cccc3Cl)ccn2)nc(N)n1 → inhibition 43.3%
Nc1ccc(-c2cc(Cl)c(Cl)c3[nH]c4c(c23)CN(C(=O)CO)CC4)cn1 → inhibition 50.5%

The last 13 compounds once more:

SMILES,inhibition (%)
[O-][n+]1cccc(-c2nc3c(Cl)cccc3cc2C(Nc2ncnc3cccnc23)C(F)(F)F)c1,0.0
CC(=O)OC[C@@H](COC(=O)/C=C/c1ccc(O)cc1)O[C@@H]1O[C@H](CO)[C@@H](O)[C@H](O)[C@H]1O,0.0
O=C(Nc1cccc(C(F)(F)F)c1)c1cccc2cc(Oc3cc(CO)ncn3)ccc12,0.0
CC(C)OP(=O)(OC(C)C)C(Cc1cc(C(C)(C)C)c(O)c(C(C)(C)C)c1)P(=O)(OC(C)C)OC(C)C,15.5
O=C(O)CC(CC(=O)O)C(=O)O,0.0
O=C(CBr)N1CC([N+](=O)[O-])([N+](=O)[O-])C1,57.1
O=C(Cc1ccc(O)cc1)N1CCc2c([nH]c3ccccc23)C1,0.0
COC(=O)c1ccccc1C(=O)c1ccc(OCCN2CCCCC2)cc1.Cl,78.4*
CNS(=O)(=O)c1ccccc1Nc1nc(Nc2ccc(N3CCN(C)CC3)cc2OC)ncc1Br,0.0
CC(C)(C)NC(=O)[C@H]1CC[C@H]2[C@@H]3CC[C@H]4NC(=O)C=C[C@]4(C)[C@H]3CC[C@]12C,22.9
CC[C@H](C)[C@@H]([C@@H](CC(=O)N1CCC[C@H]1[C@H](OC)[C@@H](C)C(=O)N[C@@H](Cc1ccccc1)c1nccs1)OC)N(C)C(=O)[C@@H](NC(=O)[C@@H](NC)C(C)C)C(C)C,81.1*
Cc1cc(Nc2cc(NC(=O)c3c(Cl)cccc3Cl)ccn2)nc(N)n1,43.3
Nc1ccc(-c2cc(Cl)c(Cl)c3[nH]c4c(c23)CN(C(=O)CO)CC4)cn1,50.5